Assay results from patent publication US4602011A, “Antimicrobial compositions and methods of using same” (Chapman Chemical Company, priority 1982, dated 1986).

Tested on: Micrococcus flavus (10240)
Settings: ppm of active ingredient; "1" means 1 or less

With `CCCCCCCCCCCCc1ccc(S(=O)(=O)O)cc1` [DDBSA, dodecyl benzene sulfonic acid] as the compound, how does the Minimum bactericidal concentration read?
Its Minimum bactericidal concentration is 100 ppm.
